Measurements taken from patent US12201629B2 (priority 2017, dated 2025).

Test: Example 2: pharmacokinetics of oral and intravenous buprenorphine hydrochloride under naltrexone blockade
[1] = oral, equimolar to 5 mg buprenorphine base, n = 8

Buprenorphine HCl [Buprenorphine HCl IR oral]
period with analgesic blood levels on the level of Butrans 20 mcg/h (oral IR, equimolar to 5 mg buprenorphine base, FIG. 3): at least 12 hours | Absolute Bioavailability (F %) (oral solution 5 mg vs 0.3 mg IV, Mean ± SD, AUCt oral/AUCt IV × Dose IV/Dose oral): 5.18 ± 2.47% | Buprenorphine Mean Cmax [1]: 0.628 ng/mL | Buprenorphine Mean Tmax [1]: 2.500 h
